Patent US20040192707A1
Only a part of the results on these compounds is given; other tests are left out.

Test: Evaluation of Bioavailability in Male CD-1 Mice
Conditions: plasma, LC/MS
Method: Evaluation of Bioavailability in Male CD-1 Mice
Male CD-1 mice were dosed with the compound by iv (tail injection; vehicule: 45% β-cyclodextrin in saline) and by po (gavage; vehicule: 0.5% carboxy Methyl Cellulose+5% tween 80+saline).
Parent compound was administered at a dose of 20 mg/kg (i.v.) and 130 mg/kg (p.o.) whereas compound #1 and compound #2 were administered at 25 mg/kg (i.v. and p.o.)
The blood was collected in EDTA tube. Time points collected for iv are: 2, 5, 15, 30, 45, 60, 90, 120, 180 and 240 minutes post injection and for po are: 5, 15, 30, 45, 60, 90, 120, 180 and 240 minutes post injection. Three mice per time point. The blood was centrifuged to obtain plasma samples.
Plasma samples were extracted by protein precipitation with acetonitrile, evaporated and reconstituted with 50% MeOH/H2O. 30 μL was injected for the parent compound and for compound #1 and compound #2 10 μL was injected.
The standard curve range was between 0.1 to 30 μg/ml for the parent compound, 0.5 to 5 μg/ml for compound #1 and 0.01 to 2 μg/ml for compound #2. Adequate QC were performed.
The analysis was performed with a HPLC Agilent 1100 equipped with a MSD mass spectrometry detector with API-ESI source (LC/MS) supported by ChemStation software.
Analytical condition: The column was a Luna C18 (2) 5 μm 2×50 mm distributed by Phenomenex. A linear gradient of acetonitrile in 10 mM ammonium formate pH 6 was done at a flow rate of 0.25 ml/min.

CC1CCC(C(=O)N(c2cc(-c3ccccc3)sc2C(=O)OCOC(=O)C(C)(C)C)C2CCN(C)CC2)CC1 (stereo not drawn)
Bioavailability (25 mg/kg (i.v. and p.o.)): 8.7%

CC1CCC(C(=O)N(c2cc(-c3ccccc3)sc2C(=O)OCOC(=O)OC(C)C)C2CCN(C)CC2)CC1.Cl (stereo not drawn)
Bioavailability (25 mg/kg (i.v. and p.o.)): 3.8%

CC1CCC(C(=O)N(c2cc(-c3ccccc3)sc2C(=O)O)C2CCN(C)CC2)CC1 (stereo not drawn)
Bioavailability (20 mg/kg (i.v.) and 130 mg/kg (p.o.)): 0.4%
